In patent publication US9134328B2, “Methods of using benzothiazole derivative compounds and compositions” (University of Pittsburgh—Of the Commonwealth System of …, priority 2003, dated 2015):

Assay: In vivo mouse brain entry studies
Set-up: species or system female Swiss-Webster mice
Description: Experiments to assess brain penetration of 2-(3′-^125I-iodo-4′-amino-phenyl)-benzothiazol-6-ol (Compound A), 2-(3-[^18F]-fluoro-4-methylamino-phenyl)-benzothiazol-6-ol (Compound 13), and 2-[4-(3-^18F-fluoro-propylamino)-phenyl]benzothiazol-6-ol (Compound C) were performed in young, wild type mice that had no amyloid deposits in their brain. This study reflects brain entry and clearance from normal brain tissue. […] A measure of non-specific binding clearance rate is provided by the ratio of the 2 minutes-to-30 minutes (% ID-kg)/g values.
The mice were injected in a lateral tail vein with 0.37-3.7 MBq (10-100 μCi) of a high specific activity (˜2.0/μmol) Compound A, Compound B or Compound C contained in ≦0.10 mL of a solution of 95% isotonic saline and 5% ethanol. The mice were anesthetized and killed by cardiac excision following cardiac puncture to obtain arterial blood samples at 2 minutes or 30 minutes post-injection. The mouse brains were rapidly excised and divided into the cerebellum and the remaining whole brain (including brain stem) fractions. The brain samples were counted in a gamma well-counter, and the counts were decay-corrected to the time of injection relative to ^125I or ^18F standards prepared from the injection solution to determine the percent injected dose (% ID) in the samples. The brain samples were weighed to determine the percent injected dose per gram tissue (% ID/g), and this quantity was multiplied by the whole body weight (in kg) to determine the body-weight normalized radioactivity concentration [(% ID-kg)/g] of each tissue sample. […] The radioactivity concentrations (% ID-kg/g) at 2 minutes and 30 minutes and the 2 minutes-to-30 minutes ratios are presented in Table I below.

Nc1ccc(-c2nc3ccc(O)cc3s2)cc1[125I] [Compound A, 2-(3′-^125I-iodo-4′-amino-phenyl)-benzothiazol-6-ol]
2 min./30 min. Ratio: 16
Radioactivity Conc. at 2 min.: 0.141 % ID-kg/g
Radioactivity Conc. at 30 min.: 0.009 % ID-kg/g
brain entry and clearance (in words): relatively high brain entry at early time points and fast clearance at later time points
